Results taken from patent US10231967B2, “Compounds and their use as BACE inhibitors” (ASTRAZENECA AB, priority 2010, dated 2019).

tested on: sAPPβ release in SH-SY5Y cells; experiment: sAPPβ release assay; type: cell-based; details: Homo sapiens, 17 h, compounds incubated 17 h, MSD detection
Method: Thaw cells and seed at a conc. of around 10000 cells/well in DMEM/F-12 with Glutamax, 10% FCS and 1% non-essential amino acids to a 384-well tissue culture treated plate, 100 μL cell susp/well. […] The cell medium was removed, followed by addition of 30 μL compound diluted in DMEM/F-12 with Glutamax, 10% FCS, 1% non-essential amino acids and 1% PeSt to a final conc. of 1% DMSO. The compounds were incubated with the cells for 17 h (overnight) at 37° C., 5% CO2. Meso Scale Discovery (MSD) plates were used for the detection of sAPPβ release. MSD sAPPβ plates were blocked in 1% BSA in Tris wash buffer (40 μL/well) for 1 h on shake at r.t. and washed 1 time in Tris wash buffer (40 μL/well). 20 μL of medium was transferred to the pre-blocked and washed MSD sAPPβ microplates, and the cell plates were further used in an ATP assay to measure cytotoxicity. The MSD plates were incubated with shaking at r.t. for 2 h and the media discarded. 10 μL detection antibody was added (1 nM) per well followed by incubation with shaking at r.t. for 2 h and then discarded. 40 μL Read Buffer was added per well and the plates were read in a SECTOR Imager.

Row | Structure (SMILES) | IC50 [nM]
1 | CO[C@H]1CC[C@]2(CC1)Cc1ccc(-c3cc(Cl)cc(C#N)c3)cc1[C@@]21N=C(C)C(N)=N1 (single isomer, unassigned) [Example 20d Isomer 1] | 0.26
2 | CO[C@H]1CC[C@]2(CC1)Cc1ccc(-c3cncc(Cl)c3)cc1[C@@]21N=C(C)C(N)=N1 (single isomer, unassigned) [Example 20e Isomer 1] | 0.57
3 | CO[C@H]1CC[C@]2(CC1)Cc1ccc(-c3cc(F)cc(C#N)c3)cc1C21N=C(C)C(N)=N1 (single isomer, unassigned; isomer 1) [Example 75, 3-[(1r,4r)-4″-Amino-4-methoxy-5″-methyl-3′H-dispiro[cyclohexane-1,2′-indene-1′,2″-imidazol]-6′-yl]-5-fluorobenzonitrile] | 2.1
4 | COc1cccc(-c2ccc3c(c2)C2(CCO3)N=C(C)C(N)=N2)c1F (stereo not drawn) [Example 9, 6-(2-Fluoro-3-methoxyphenyl)-5′-methylspiro[chroman-4,2′-imidazol]-4′-amine] | 2450
5 | CO[C@H]1CC[C@]2(CC1)Cc1ccc(-c3ccc(F)c(C#N)c3)cc1C21N=C(C)C(N)=N1 (stereo partly drawn) [Example 20g, 5-[(1r,4r)-4″-Amino-4-methoxy-5″-methyl-3′H-dispiro[cyclohexane-1,2′-indene-1′,2″-imidazol]-6′-yl]-2-fluorobenzonitrile] | 2.6
6 | COC1CCC2(CC1)Oc1ccc(-c3cccc(Cl)c3)cc1C21N=C(C)C(N)=N1 (stereo not drawn) [Example 30b, 5′-(3-Chlorophenyl)-4-methoxy-5″-methyldispiro[cyclohexane-1,2′-[1]benzofuran-3′,2″-imidazol]-4″-amine] | 284
